Measured affinities in a library of Ab-91 heavy chain variants

Binding partner: SARS-CoV-2 spike HR2 peptide, sequence PDVDLGDISGINAS.

Ab-91 is the parent antibody, in scFv form: VL, then a 15-residue (Gly4Ser)3 linker, then VH. The light chain is unchanged in all variants.
VL: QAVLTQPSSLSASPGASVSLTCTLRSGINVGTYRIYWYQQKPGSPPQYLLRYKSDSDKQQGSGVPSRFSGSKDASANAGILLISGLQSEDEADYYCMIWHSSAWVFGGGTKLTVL
VH: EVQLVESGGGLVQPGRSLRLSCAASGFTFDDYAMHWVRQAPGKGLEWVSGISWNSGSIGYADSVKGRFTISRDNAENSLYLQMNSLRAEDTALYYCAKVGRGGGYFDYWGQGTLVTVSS

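The parent was found by panning a naive human phage display library on the peptide. Library AAYL51 holds single substitutions and randomly drawn double and triple substitutions in the CDRs. The assay is AlphaSeq: two haploid yeast populations carry antibody and antigen on their surface. Pairs that bind mate more often; barcode pairs of the diploids are counted by sequencing. A regression on co-assayed BCL2-family reference pairs converts the normalised counts of each replicate to an apparent Kd. Mating was done three times.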

Substitutions are numbered in sequence along the VH above, starting at 1 (not Kabat). Scale: log10 of Kd in nM, estimated from mating counts; low values are strong binders. An entry "n.d." has no value in the source: the pair was not observed among the diploids in that replicate. This suggests poor binding but is not conclusive. For reference, the parent read 1.86 as the reference entry and 0.88 as a member of this library.

| changes | replicates, log10 nM | empty controls |
|---|---|---|
| V64H+V99I+F106Y | n.d. / n.d. / n.d. | 1/9 (3.10) |
| G56P+I58E+G59S | 4.20 / n.d. / n.d. | 6/9 (4.68) |
| G26D+Y60T+K65G | n.d. / n.d. / n.d. | 0/9 |
| G56D+R101K+F106D | 4.58 / n.d. / n.d. | 0/9 |
| H35I+G50E+N54P | n.d. / n.d. / n.d. | 0/9 |
| S55C+A61H+G103S | 4.85 / n.d. / n.d. | 0/9 |
| G26K+D30A+W53L | n.d. / n.d. / n.d. | 5/9 (4.63) |
| I58V+A61N+D107I | 3.32 / 3.47 / n.d. | 3/9 (4.64) |
| G50S+I51F+G56H | 3.38 / n.d. / n.d. | 0/9 |
| D30E+D31L+G102W | 0.96 / 0.92 / 0.44 | 8/9 (4.89) |
| Y32P+Y60H+S63K | n.d. / n.d. / 3.68 | 0/9 |
| D30F+G59C+V99D | n.d. / n.d. / n.d. | 1/9 (4.74) |
| G26H+A33C+N54G | n.d. / n.d. / n.d. | 0/9 |
| T28P+I58P+S63P | 4.27 / 5.70 / 5.56 | 3/9 (4.81) |
| Y32M+I51R+S52R | 3.71 / n.d. / n.d. | 2/9 (4.33) |
| V99T+G100Y+Y108G | n.d. / 4.17 / n.d. | 0/9 |
| S55G+G59W+V64A | n.d. / 4.67 / 3.91 | 2/9 (3.87) |
| H35S+G50C+A61E | n.d. / 4.83 / n.d. | 1/9 (3.30) |
| G26P+A33N+Y108I | 4.61 / 4.51 / n.d. | 3/9 (4.68) |
| M34V+S55E+V64G | 4.93 / 5.72 / n.d. | 3/9 (4.74) |
| F29R+S52C+G56A | 5.59 / n.d. / 4.24 | 2/9 (4.36) |
| A33D+S57R+Y60P | n.d. / n.d. / n.d. | 2/9 (4.16) |
| G26N+A33L | 5.04 / 3.63 / n.d. | 3/9 (5.10) |
| V99D+Y105K+D107P | 2.58 / 3.02 / 2.87 | 2/9 (3.94) |
| N54E+S55A+G102Y | n.d. / 3.63 / 4.49 | 3/9 (4.72) |
| D30K+V99W+G103K | n.d. / n.d. / 4.48 | 1/9 (4.12) |
| S55P+R101N+Y105V | 5.31 / 5.14 / n.d. | 5/9 (4.86) |
| A61V+V64D+D107A | 4.79 / 5.57 / 4.47 | 5/9 (4.58) |
| G26F+Y32F+G100D | 3.70 / 4.27 / n.d. | 1/9 (3.94) |
| T28K+Y60G | 3.58 / 6.15 / n.d. | 4/9 (4.05) |
| M34W+I51E+D62N | n.d. / n.d. / n.d. | 1/9 (4.03) |
| S55A+V64D+Y105C | n.d. / n.d. / 4.94 | 5/9 (4.25) |
| G26D+D31E+D62C | 1.67 / 1.67 / 1.41 | 2/9 (4.13) |
| S52Q+N54S+S63A | n.d. / n.d. / n.d. | 0/9 |
| N54F+G59H+D107P | 5.15 / 5.08 / 5.44 | 4/9 (4.78) |
| N54M+S55Y+G104I | n.d. / n.d. / n.d. | 1/9 (5.21) |
| I51H+S55Q | n.d. / n.d. / n.d. | 2/9 (4.90) |
| F27Q+Y60M+Y108E | n.d. / 5.25 / n.d. | 4/9 (4.33) |
| D31W+Y60T+G103P | n.d. / 4.72 / n.d. | 1/9 (4.21) |
| G56T+R101W+F106L | n.d. / 5.21 / n.d. | 3/9 (5.09) |
| T28Y+F29Q+D31V | 4.60 / 3.88 / 4.39 | 2/9 (4.70) |
| N54D+D62T+G103L | 4.22 / 3.85 / n.d. | 2/9 (3.92) |
| G59R+D107L | 4.69 / 7.23 / n.d. | 9/9 (5.58) |
| G103M+F106H | 2.42 / 2.80 / 2.14 | 5/9 (4.87) |
| F27T+S57G+G59Q | n.d. / n.d. / n.d. | 0/9 |
| D30K+V99M | 2.44 / 2.42 / 2.22 | 3/9 (4.77) |
| G50T+S55V+D107F | n.d. / 6.29 / 5.15 | 1/9 (5.72) |
| G50R+V99R+Y108P | n.d. / 5.91 / n.d. | 4/9 (4.54) |
| S55T+V64N+Y105G | 4.07 / n.d. / n.d. | 0/9 |
| H35R+I51C+G104V | n.d. / n.d. / n.d. | 0/9 |

The last 7 entries again:

| changes | replicates, log10 nM | empty controls |
|---|---|---|
| G103M+F106H | 2.42 / 2.80 / 2.14 | 5/9 (4.87) |
| F27T+S57G+G59Q | n.d. / n.d. / n.d. | 0/9 |
| D30K+V99M | 2.44 / 2.42 / 2.22 | 3/9 (4.77) |
| G50T+S55V+D107F | n.d. / 6.29 / 5.15 | 1/9 (5.72) |
| G50R+V99R+Y108P | n.d. / 5.91 / n.d. | 4/9 (4.54) |
| S55T+V64N+Y105G | 4.07 / n.d. / n.d. | 0/9 |
| H35R+I51C+G104V | n.d. / n.d. / n.d. | 0/9 |

Three control strains display no target. For library AAYL51, 21% of the pairings with them gave a signal, with a median of 4.54 and one signal in twenty below 3.26, so weak values seen in few replicates may be background. The control count says in how many pairings with the empty strains this scFv gave a signal, with their mean in brackets.

Data: MIT Lincoln Laboratory AlphaSeq set, Engelhart et al. 2022, doi:10.1038/s41597-022-01779-4, as distributed in FLAb.